# Assay outcomes as filed in PubChem.
# PglD inh = C. jejuni PglD acetyltransferase inhibitors, primary screen, biochemical, DTNB colorimetric, single point; UDP-N-acetylbacillosamine N-acetyltransferase PglD (Campylobacter jejuni); purified PglD enzyme, DTNB colorimetric CoA detection; inhibition, % at 12.5 µM; hit rate 0.098% among 360,000; AID 602405, 2012; in the data active means inhibition above about 16%, passing the limit was not always enough
# esBAF inh = Bmi1 luciferase reporter increase in mESCs, primary screen, esBAF inhibitor project, mouse ES cells, Bmi1 luciferase knock-in, single point. 24 h; 100% = twice the neutral-well signal. AID 602393, 2012. hit rate 2% among 350,000. reporter increase, % at 12.5 µM; in the data active means activation above about 40%;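 further: 0% = median of the plate's neutral control wells and 100% = double that signal; a rise in the Bmi1 reporter signal indicates esBAF inhibition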
# UUG fidelity = alters start codon recognition fidelity in yeast. S. cerevisiae UUG-firefly luciferase reporter, luminescence/redox ratio. AID 602363. activity score, % at 18.7 µM. hit rate 0.13% among 350,000;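 active = replicate mean at a twofold rise or more, about +100% in these data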;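 note: firefly luciferase made from a UUG start codon reports start codon fidelity; reporter light over untreated wells divided by growth signal over untreated wells; some hits fall short of that in this replicate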
# E-sel inducer = E-selectin induction in HUVECs, primary screen, imaging, HUVEC, immunofluorescence imaging, single point. normalized: neutral wells 0, TNF-alpha wells 100. activation, % at 7.58 µM. hit rate 0.37% among 260,000;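 active means mean E-selectin-positive cell signal at least 10% of the positive control, reached in at least 60% of replicates, without over 20% cell loss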
#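 Read-out: % PE-positive cells | Test system: HUVEC | Doses: One compound dose added by pin transfer | Buffer or medium: EGM-2 over gelatin coat | Signal: Immunofluorescence imaging | Benchmarks: TNF-alpha, DMSO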
# C2C12 statin = suppressors of statin myotoxicity in C2C12 myotubes, primary screen, cell-based, single point, plate reader | hit rate 0.78% among 330,000 | AID 602340, 2012 | C2C12 myotubes + simvastatin, ATP luminescence, 48 h; scaled: DMSO 0, geranylgeraniol control 100 | rescue of ATP level, % at 7.49 µM;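 active means mean ATP rescue above about 67%, or every replicate alone reaching that limit, limit read from the data, passing the limit was not always enough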;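 further: myotubes were challenged with 10 µM simvastatin during compound exposure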
# PGC1a acetyl inh = inhibitors of PGC1a acetylation signal, primary screen, cell-based, U2OS, AlphaScreen, inhibitor mode; inhibition, % at 15.6 µM; hit rate 0.17% among 350,000; AlphaScreen anti-acetyl-lysine; with virally co-expressed GCN5 acetyltransferase;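 active means every replicate shows inhibition of at least 40%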;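 further: 0% = neutral control wells and 100% = positive control wells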
# Numbers without * were called inactive; nt = not tested or not shown. Rows were chosen to be rich in hits. Some 2.8% of all compounds tested hit in one or more screens of this group.
No. | mol | PglD inh | esBAF inh | UUG fidelity | E-sel inducer | C2C12 statin | PGC1a acetyl inh
1 | COCCCNC(=O)[C@@]1(CCS(=O)(=O)c2ccccc2)COC(c2ccc(OCCCO)cc2)=N1 | 2 | nt | 6 | nt | nt | nt
2 | Cc1cc2nc(-c3ccccc3)c(Cc3cccc(F)c3)n2c(C)c1Br | -8 | 10 | -12 | 1 | -5 | -8
3 | Cc1ccc2nc(-c3cccc(Br)c3)c(Cc3ccccn3)n2c1 | -3 | 48* | -4 | 1 | 1 | 4
4 | Cc1ccc(-c2nc3cc(C)c(Br)c(C)n3c2Cc2cccc(F)c2)cc1 | 1 | 54* | -15 | 0 | 4 | -7
5 | COC(=O)c1ccc2nc(-c3cccc(Cl)c3)c(Cc3ccsc3)n2c1 | -3 | 55* | -17 | 1 | -5 | -8
6 | Cc1ccc(-c2nc3ccc(C)cn3c2Cc2ccccn2)cc1 | nt | nt | nt | 0 | nt | nt
7 | O=C([C@H]1N[C@H]2c3ccc(-c4ccccc4F)c(=O)n3C[C@H]2[C@@H]1CO)N1CCc2ccccc2C1 | -3 | 2 | nt | 0 | 16 | nt
8 | Cc1cc(NC(=O)COC(=O)c2cccc(S(=O)(=O)N3CCOCC3)c2)no1 | 2 | 1 | -11 | nt | 9 | 2
9 | O=C(COC(=O)c1cccc(S(=O)(=O)N2CCOCC2)c1)Nc1nc(-c2ccccc2Cl)cs1 | nt | 52* | nt | nt | nt | nt
10 | CC=Cc1ccc2n(c1=O)C[C@@H]1[C@@H](CO)[C@H](C(=O)NCCOC)[C@H]2N1Cc1nccs1 (mixture of isomers) | 19* | -1 | nt | 0 | 35 | nt
11 | O=C(c1ccccn1)N1CC[C@@H]2[C@H]1c1cc(-c3ccc(F)cc3)ccc1N[C@@H]2CO | -1 | 47* | 6 | 2 | -28 | -2
12 | O=C(C1CCCC1)N1CC[C@@H]2[C@H](CO)Nc3ccc(C#Cc4ccc(F)cc4)cc3[C@@H]21 | nt | nt | nt | 54* | nt | 8
13 | O=C(C1CCCCC1)N1CC[C@@H]2[C@H](CO)Nc3ccc(C#Cc4ccc(F)cc4)cc3[C@@H]21 | 1 | 3 | -7 | 22 | 13 | -2
14 | O=C(c1ccccn1)N1CC[C@@H]2[C@H](CO)Nc3ccc(-c4ccc(F)cc4)cc3[C@@H]21 | nt | nt | nt | 3 | nt | nt
15 | C[C@@H]1CN([C@H](C)CO)C(=O)c2cc(NS(C)(=O)=O)ccc2O[C@@H]1CN(C)Cc1ccc(Cl)c(Cl)c1 | -1 | 1 | -3 | 4 | 52 | 4
16 | COc1cccc(-c2ccc([C@H]3[C@H](CO)N4C(=O)CN(C(=O)C5CC5)C[C@@H]34)cc2)c1 | nt | nt | nt | 0 | nt | -8
17 | CO[C@H]1CN(C)C(=O)c2cc(NC(=O)C3CC3)ccc2OC[C@H](C)N(CC2CCOCC2)C[C@@H]1C | 3 | 0 | -2 | 0 | 1 | 4
18 | O=C1CCC(=O)N1CCC(c1ccc(F)cc1)c1ccco1 (configuration not stated) | 0 | -4 | -9 | nt | -5 | 6
19 | O=C1c2ccccc2C(=O)N1CCC(c1ccc(F)cc1)c1ccco1 (configuration not stated) | 1 | 2 | -8 | nt | 77* | -5
20 | CCC(=O)Nc1cccc(-c2nc3ccccc3o2)c1 | -5 | 60* | -8 | nt | -22 | 2
21 | CCc1ccc(Nc2nc(C)cc(C)n2)cc1 | -4 | 49* | -16 | 2 | -22 | -2
22 | COc1ccc(NC(=O)Nc2ccc3c(c2)C(=O)N([C@@H](C)CO)C[C@@H](C)[C@@H](CN(C)Cc2ccc(C(=O)Nc4ccccc4N)cc2)O3)cc1 | -2 | -11 | -9 | 2 | nt | 8
23 | Cc1csc(NC(=O)Cc2c[nH]c3ccccc23)n1 | nt | 61* | nt | nt | 4 | 0
24 | Cc1csc(NC(=O)Cc2ccc(F)cc2)n1 | 0 | 64* | -1 | nt | -6 | 4
25 | O=C(Cc1ccc(F)cc1)Nc1nc(-c2ccc(F)c(F)c2)cs1 | 4 | 7 | -19 | nt | 10 | nt

# Brought forward from above: five entries; new compounds follow.
No. | mol | PglD inh | esBAF inh | UUG fidelity | E-sel inducer | C2C12 statin | PGC1a acetyl inh
21 | CCc1ccc(Nc2nc(C)cc(C)n2)cc1 | -4 | 49* | -16 | 2 | -22 | -2
22 | COc1ccc(NC(=O)Nc2ccc3c(c2)C(=O)N([C@@H](C)CO)C[C@@H](C)[C@@H](CN(C)Cc2ccc(C(=O)Nc4ccccc4N)cc2)O3)cc1 | -2 | -11 | -9 | 2 | nt | 8
23 | Cc1csc(NC(=O)Cc2c[nH]c3ccccc23)n1 | nt | 61* | nt | nt | 4 | 0
24 | Cc1csc(NC(=O)Cc2ccc(F)cc2)n1 | 0 | 64* | -1 | nt | -6 | 4
25 | O=C(Cc1ccc(F)cc1)Nc1nc(-c2ccc(F)c(F)c2)cs1 | 4 | 7 | -19 | nt | 10 | nt
26 | Cc1cccc(NC(=O)Cc2c(F)cccc2Cl)n1 | 1 | 32 | -13 | 0 | -2 | 23
27 | Cc1cnc(NC(=O)Cc2c[nH]c3ccccc23)s1 | 4 | 8 | -13 | nt | 13 | -3
28 | Cc1csc(NC(=O)Cc2c(F)cccc2Cl)n1 | 3 | 62* | -11 | 0 | 0 | 7
29 | O=C(CC1CC2CCC1C2)NC1CCCCCCC1 (configuration not stated) | 3 | 60* | -2 | 0 | -5 | 10
30 | O=C(CC1CCCCC1)NC1CCCC1 | nt | 4 | nt | nt | nt | nt
31 | CC(C)(C)C(=O)Nc1ccccc1N1CCN(C(=O)c2ccc(Cl)cc2)CC1 | 3 | 5 | 11 | -1 | 127* | 0
32 | COc1ccccc1C(NC(C)=O)c1cc(Cl)c2cccnc2c1O (configuration not stated) | 3 | -17 | -2 | nt | 3 | 46*
33 | O=C(C[C@H]1CC[C@H](NC(=O)c2ccc3c(c2)OCO3)[C@H](CO)O1)NCc1ccc(F)cc1 | 4 | -1 | -7 | -2 | 4 | 0
34 | O=S(=O)(Cc1noc(-c2ccccc2Cl)n1)c1ccccn1 | nt | 44* | nt | 0 | 6 | nt
35 | Clc1ccccc1-c1nc(-c2ccncc2)no1 | -4 | 13 | -12 | 0 | -7 | -12
36 | Cc1noc(C)c1NC(=O)N[C@@H]1C=C[C@@H](CC(=O)Nc2ccccc2)O[C@@H]1CO | -1 | -3 | -3 | 0 | 5 | 7
37 | O=C1CCC([N+](=O)[O-])C(c2cc(Br)ccc2F)N1 (configuration not stated) | 1 | 2 | -16 | nt | 1 | -15
38 | O=C1CCC([N+](=O)[O-])C(c2ccc(Cl)cc2Cl)N1 (configuration not stated) | 0 | 0 | -10 | nt | 70* | 4
39 | COc1ccc2c3c(n(C)c2c1)[C@@H](CO)N(C(C)=O)CC31CCN(C(=O)Nc2ccc(F)cc2)CC1 | nt | nt | nt | 0 | nt | -3
40 | CN1C[C@H]2[C@@H](c3ccccc31)[C@@H](CO)N2C(=O)CN1CCOCC1 | 0 | 2 | -12 | 1 | -26 | 9
41 | Cc1ccc(-c2nn(-c3ccccc3)cc2CO)o1 | -7 | 46* | -22 | nt | -7 | -12
42 | OCc1cn(-c2ccccc2)nc1-c1ccc(-c2nn(-c3ccccc3)cc2CO)cc1 | -1 | -2 | -15 | nt | nt | -1
43 | Cc1ccc(-c2nn(-c3ccccc3)cc2C(N)=O)o1 | nt | nt | nt | 0 | nt | -1
44 | OCc1cn(-c2ccccc2)nc1-c1ccco1 | -4 | 42* | -17 | nt | 0 | 14
45 | COc1ccc(S(=O)(=O)Nc2ccc3c(c2)C(=O)N([C@H](C)CO)C[C@@H](C)[C@@H](CN(C)S(C)(=O)=O)OCCCC[C@H](C)O3)cc1 | 0 | -1 | 20 | 0 | nt | -2
